The target in this test is T1, human FXR (Homo sapiens, UniProt Q96RI1).
T1 construct: expressed in transfected cells; host or cells: HEK293T
T1 sequence (Q96RI1 262-486 limits assumed): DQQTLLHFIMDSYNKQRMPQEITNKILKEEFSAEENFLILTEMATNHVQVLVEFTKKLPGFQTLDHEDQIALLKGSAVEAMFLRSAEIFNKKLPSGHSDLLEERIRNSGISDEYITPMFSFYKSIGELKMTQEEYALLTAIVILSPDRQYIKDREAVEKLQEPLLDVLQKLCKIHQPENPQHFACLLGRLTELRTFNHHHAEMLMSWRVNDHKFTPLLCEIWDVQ
The experiment in a line: human FXR competition assay (GAL4-FXR chimeric receptor luciferase, HEK293T). Type of test: cell-based. The conditions noted are these: in the presence of GW4064. On the procedure: Luciferase detection was conducted using the Dual Luciferase Reporter Assay kit (Promega Corp., Madison, Wis.) and a Tecan GeniosPro luminescent plate reader (Research Triangle Park, N.C.).
Luciferase detection was conducted using the Dual Luciferase Reporter Assay kit (Promega; Madison, Wis.) and a Tecan GeniosPro™ luminescent plate reader (Research Triangle Park, N.C.).

Molecules are shown by their SMILES.

Consider `C[C@H](CCC(=O)NCCS(=O)(=O)O)[C@H]1CC[C@H]2[C@@H]3[C@@H](O)C[C@@H]4C[C@H](O)CC[C@]4(C)[C@H]3CC[C@]12C` [TUDCA, tauroursodeoxycholic acid], for which the “FXR activity induced by synthetic agonist GW4064 (luciferase, normalized to Renilla)” value was “inhibited FXR”.

Values taken from patent US10233209B2, “Inhibitors of the farnesoid x receptor and uses in medicine” (The United States of America, as represented by the …, priority 2013, dated 2019).
